This note sets out measurements from ChEMBL document CHEMBL3297660, “Combination of cyclohexane and piperazine based κ-opioid receptor agonists: Synthesis and pharmacological evaluation of trans,trans-configured perhydroquinoxalines” (Bioorg Med Chem, 2014).

The chains behind the UniProt entries cited, without tags or fusion partners.
UniProt Q60492, whole entry: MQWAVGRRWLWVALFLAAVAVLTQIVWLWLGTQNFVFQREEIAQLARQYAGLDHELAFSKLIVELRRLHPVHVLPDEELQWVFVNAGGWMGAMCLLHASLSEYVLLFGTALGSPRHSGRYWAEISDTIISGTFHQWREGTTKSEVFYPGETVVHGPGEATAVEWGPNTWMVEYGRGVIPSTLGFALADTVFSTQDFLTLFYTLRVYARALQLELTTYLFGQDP

Active and inactive are the calls of the source. The rule behind the calls is not given here.

The species entered for one experiment is Rattus norvegicus. Nature of the experiment: Displacement of [3H]-DTG from sigma2 receptor in rat liver membrane at 1 uM. It is filed as cell membranes.
For another experiment, the species on record is Sus scrofa. Nature of the experiment: Displacement of [3H]-(+)-MK-801 from NMDA receptor in pig brain at 1 uM by scintillation counting analysis.
The target in experiment [1] is Sigma non-opioid intracellular receptor 1 (Cavia porcellus) (UniProt Q60492). Nature of the experiment: Displacement of [3H]-(+)-Pentazocine from sigma1 receptor in guinea pig brain membrane at 1 uM. In kind it is cell membranes.

`O=C(Cc1ccc(Cl)c(Cl)c1)N1CCN(Cc2ccccc2)[C@@H]2CCC[C@H](N3CCCC3)[C@H]21` (racemic): the outcome in the experiment listed under Rattus norvegicus and in the experiment listed under Sus scrofa was inactive.

With `O=C(Cc1ccc(Cl)c(Cl)c1)N1CCN[C@@H]2CCC[C@H](N3CCCC3)[C@H]21` (relative stereo), the outcome in the experiment listed under Rattus norvegicus and in the experiment filed under Sus scrofa was inactive.

Take `c1ccc(CN2CCN[C@H]3[C@H]2CCC[C@@H]3N2CCCC2)cc1` (mixture of isomers): the result (in experiment [1]; in the experiment filed under Rattus norvegicus; in the experiment filed under Sus scrofa) was inactive.

Consider `N[C@H]1CCC[C@@H]2[C@@H]1NC(=O)C(=O)N2Cc1ccccc1` (racemic), for which the result (in experiment [1]; in the experiment listed under Rattus norvegicus; in the experiment filed under Sus scrofa) was inactive.

Take `O=C(Cc1ccccc1)N1CCN(Cc2ccccc2)[C@@H]2CCC[C@H](N3CCCC3)[C@H]21` (racemic): the outcome in the experiment listed under Rattus norvegicus and in the experiment listed under Sus scrofa was inactive.

Turning to `O=C1N[C@@H]2[C@@H](NCc3ccccc3)CCC[C@H]2N(Cc2ccccc2)C1=O` (mixture of isomers), the result (in experiment [1]; in the experiment filed under Rattus norvegicus; in the experiment filed under Sus scrofa) was inactive.

Regarding `O=C1N[C@H]2[C@@H](CCC[C@@H]2N2CCCC2)N(Cc2ccccc2)C1=O` (relative stereo), the outcome (in experiment [1]; in the experiment filed under Rattus norvegicus; in the experiment listed under Sus scrofa) was inactive.

With `O=C1N[C@@H]2[C@@H](NCc3ccc(Cl)cc3)CCC[C@H]2N(Cc2ccc(Cl)cc2)C1=O` (racemic), the result in the experiment listed under Rattus norvegicus and in the experiment filed under Sus scrofa was inactive.

For `COC(=O)N1CCN(C(=O)Cc2ccc(Cl)c(Cl)c2)[C@H]2[C@H]1CCC[C@@H]2N1CCCC1` (racemic), the result in the experiment listed under Rattus norvegicus and in the experiment filed under Sus scrofa was inactive.

As for `O=C(Cc1ccccc1)N1CCN[C@@H]2CCC[C@H](N3CCCC3)[C@H]21` (racemic), the result in the experiment filed under Rattus norvegicus and in the experiment listed under Sus scrofa was inactive.
